This is an account of results in ChEMBL document CHEMBL1143592, “N-terminal sugar conjugation and C-terminal Thr-for-Thr(ol) exchange in radioiodinated Tyr3-octreotide: effect on cellular ligand trafficking in vitro and tumor accumulation in vivo” (J Med Chem, 2005).

Sequences of proteins named here, by UniProt entry; tags and fusion partners are left off. A change or cut given only in a name is not applied to a line headed by its entry.
UniProt P35346: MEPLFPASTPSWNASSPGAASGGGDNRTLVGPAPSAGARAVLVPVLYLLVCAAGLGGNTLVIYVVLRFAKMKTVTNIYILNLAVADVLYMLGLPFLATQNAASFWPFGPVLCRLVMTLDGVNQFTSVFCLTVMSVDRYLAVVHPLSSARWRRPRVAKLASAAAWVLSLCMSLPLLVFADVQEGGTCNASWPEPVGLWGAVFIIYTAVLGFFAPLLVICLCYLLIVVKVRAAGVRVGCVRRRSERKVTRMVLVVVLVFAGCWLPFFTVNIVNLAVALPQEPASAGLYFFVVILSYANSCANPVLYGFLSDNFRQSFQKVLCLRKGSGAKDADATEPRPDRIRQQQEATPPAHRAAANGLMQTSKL
UniProt P32745: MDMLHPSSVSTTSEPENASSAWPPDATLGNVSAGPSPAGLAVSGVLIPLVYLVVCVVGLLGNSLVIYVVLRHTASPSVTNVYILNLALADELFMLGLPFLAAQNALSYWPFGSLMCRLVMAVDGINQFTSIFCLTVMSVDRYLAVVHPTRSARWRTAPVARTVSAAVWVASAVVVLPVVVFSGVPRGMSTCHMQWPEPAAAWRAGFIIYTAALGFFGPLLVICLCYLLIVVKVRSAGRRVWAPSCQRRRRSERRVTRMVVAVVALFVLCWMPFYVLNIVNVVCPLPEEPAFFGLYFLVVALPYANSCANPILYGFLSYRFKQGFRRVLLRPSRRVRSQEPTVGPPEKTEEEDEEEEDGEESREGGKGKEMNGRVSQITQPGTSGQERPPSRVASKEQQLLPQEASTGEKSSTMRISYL

Assay [1] deals with Somatostatin receptor type 5 (Homo sapiens, UniProt P35346). In words: In vitro inhibition of [125I][Leu8,D-Trp22,Tyr25] somatostatin 28 binding to human somatostatin receptor type 5 expressed in CHO-K1 cells; (n=3). It is filed as cell-based.
Assay [2] addresses Somatostatin receptor type 3 (Homo sapiens, UniProt P32745). In words: In vitro inhibition of [125I][Leu8,D-Trp22,Tyr25] somatostatin 28 binding to human somatostatin receptor type 3 expressed in CCL39 cells; (n=3). Format: cell-based. The method in brief: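 Receptor autoradiography on sections of cell membrane pellets from CHO-K1 (sst1, sst5) or CCL39 (sst2–4) cells stably expressing the human subtype. Full displacement of [125I][Leu8,D-Trp22,Tyr25]somatostatin 28 by unlabeled peptide, 0.1–1000 nM, with somatostatin 28 run in parallel as control. IC50 derived by computer-assisted image analysis, quantified against cross-calibrated [125I] tissue standards.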

As to EDOTREOTIDE YTTRIUM, the values for the IC50 in assay [1] and in assay [2] were 0.114 µM and 0.389 µM, respectively.
